Measured values as given in BindingDB's records for doi:10.1038/sj.bjp.0702293 (Monash University, 1999).

Sequences of proteins named here, by UniProt entry; tags and fusion partners are left off.
UniProt P32305, whole entry: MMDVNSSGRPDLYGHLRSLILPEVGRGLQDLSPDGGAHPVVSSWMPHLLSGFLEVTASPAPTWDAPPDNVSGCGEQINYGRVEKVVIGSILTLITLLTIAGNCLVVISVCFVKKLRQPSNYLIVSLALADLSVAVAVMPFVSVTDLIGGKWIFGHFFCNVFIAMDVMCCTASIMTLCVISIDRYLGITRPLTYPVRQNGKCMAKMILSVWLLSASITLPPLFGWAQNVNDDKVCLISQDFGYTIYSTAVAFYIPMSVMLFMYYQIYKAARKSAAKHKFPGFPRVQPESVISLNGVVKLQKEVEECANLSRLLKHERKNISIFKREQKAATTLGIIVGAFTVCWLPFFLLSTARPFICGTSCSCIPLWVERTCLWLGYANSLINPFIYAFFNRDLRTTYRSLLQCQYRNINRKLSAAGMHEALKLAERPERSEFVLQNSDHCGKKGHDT

Biological target: 5-hydroxytryptamine receptor 7 (Rattus norvegicus, UniProt P32305)

Structure (SMILES)	Ki [nM]
CCN(CC)C(=O)[C@@H]1C=C2c3cccc4[nH]cc(c34)C[C@H]2N(C)C1 [(4R,7R)-N,N-diethyl-6-methyl-6,11-diazatetracyclo[7.6.1.0^{2,7}.0^{12,16}]hexadeca-1(16),2,9,12,14-pentaene-4-carboxamide]	7.94
COc1ccc2[nH]cc(CCN)c2c1 [tryptamine, 5-Methoxy]	0.63
